This is an account of results in IntAct's records for PubMed 25314079.

Sequences and labels used below:
B1: Zinc finger protein SNAI1 (Homo sapiens), O95863 (parent)
chain: MPRSFLVRKPSDPNRKPNYSELQDSNPEFTFQQPYDQAHLLAAIPPPEILNPTASLPMLIWDSVLAPQAQPIAWASLRLQESPRVAELTSLSDEDSGKGSQPPSPPSPAPSSFSSTSVSSLEAEAYAAFPGLGQVPKQLAQLSEAKDLQARKAFNCKYCNKEYLSLGALKMHIRSHTLPCVCGTCGKAFSRPWLLQGHVRTHTGEKPFSCPHCSRAFADRSNLRAHLQTHSDVKKYQCQACARTFSRMSLLHKHQESGCSGCPR

One assay covers variants of B1. As to conditions: with ep300_human EP300, Q09472.
MPRSFLVRKPSDPNRKPNYSELQDSNPEFTFQQPYDQAHLLAAIPPPEILNPTASLPMLIWDSVLAPQAQPIAWASLRLQESPRVAELTSLSDEDSGKGSQPPSPPSPAPSSFSSTSVSSLEAEAYAAFPGLGQVPKQLAQLSEAKDLQARKAFNCKYCNKEYLSLGALKMHIRSHTLPCVCGTCGRAFSRPWLLQGHVRTHTGEKPFSCPHCSRAFADRSNLRAHLQTHSDVKKYQCQACARTFSRMSLLHKHQESGCSGCPR [K187R]: the “effect of a mutation on the interaction” value is “decreasing interaction strength”.

The variants in another assay derive from B1. The note with it: with ep300_human EP300, Q09472. This is another data set of the same source.
Take MPRSFLVRKPSDPNRKPNYSELQDSNPEFTFQQPYDQAHLLAAIPPPEILNPTASLPMLIWDSVLAPQAQPIAWASLRLQESPRVAELTSLSDEDSGKGSQPPSPPSPAPSSFSSTSVSSLEAEAYAAFPGLGQVPKQLAQLSEARDLQARKAFNCKYCNKEYLSLGALKMHIRSHTLPCVCGTCGKAFSRPWLLQGHVRTHTGEKPFSCPHCSRAFADRSNLRAHLQTHSDVKKYQCQACARTFSRMSLLHKHQESGCSGCPR [K146R]: the “effect of a mutation on the interaction” value is “decreasing interaction strength”.

In another assay the parent is B1. The note with it: with cbp_human CREBBP.
In the case of MPRSFLVRKPSDPNRKPNYSELQDSNPEFTFQQPYDQAHLLAAIPPPEILNPTASLPMLIWDSVLAPQAQPIAWASLRLQESPRVAELTSLSDEDSGKGSQPPSPPSPAPSSFSSTSVSSLEAEAYAAFPGLGQVPKQLAQLSEARDLQARKAFNCKYCNKEYLSLGALKMHIRSHTLPCVCGTCGRAFSRPWLLQGHVRTHTGEKPFSCPHCSRAFADRSNLRAHLQTHSDVKKYQCQACARTFSRMSLLHKHQESGCSGCPR [K146R;K187R], the “effect of a mutation on the interaction” value is “disrupting interaction strength”.

The next assay covers variants of B1. As to conditions: with tf65_human RELA.
As for MPRSFLVRKPSDPNRKPNYSELQDSNPEFTFQQPYDQAHLLAAIPPPEILNPTASLPMLIWDSVLAPQAQPIAWASLRLQESPRVAELTSLSDEDSGKGSQPPSPPSPAPSSFSSTSVSSLEAEAYAAFPGLGQVPKQLAQLSEARDLQARKAFNCKYCNKEYLSLGALKMHIRSHTLPCVCGTCGRAFSRPWLLQGHVRTHTGEKPFSCPHCSRAFADRSNLRAHLQTHSDVKKYQCQACARTFSRMSLLHKHQESGCSGCPR [K146R;K187R], the “effect of a mutation on the interaction” value was “disrupting interaction strength”.
